Data on one molecule can be found in patent publication US12589103B2, “Antimicrobial and antiviral effects of C2-C7 alkyl boronic acids” (CORNELL UNIVERSITY, priority 2019, dated 2026).

The structures appear in SMILES notation.

Test [1] has as its system Gram Positive aerobes and probiotic species (Lactobacillus, Bifidobacteria). Briefly: Bacterial growth panel, impact on non-target species (selectivity). As to conditions: same concentrations as growth panel. The class given is cell-based.
Test [2] has as its system enteric pathogens (E. coli, Salmonella, Listeria monocytogenes, Klebsiella). Briefly: Bacterial growth panel, OD600 growth-curve AUC ratio (heat map). As to conditions: 40 mM (BA, EBA, PBA), 20 mM (BBA), 10 mM (PeBA), 5 mM (HBA, SBA), 1 mM (OBA), 0.5 mM (DBA), 2 mM (DoDBA), 20 mM (FMPBA); 24-48 hrs. The class given is cell-based.

With `CCCB(O)O` [PBA], the “selectivity: impact on Gram Positive aerobes and probiotic species” value in test [1] is “less impact on probiotic Lactobacillus, Bacillus, and Gram Positive aerobes”. For the same molecule, the “antibacterial activity / potency against enteric pathogens (growth, AUC+test compound:AUC−test compound)” value in test [2] is given as “higher potency against enteropathogens”.
